Assay results reported in ChEMBL document CHEMBL4316619 (Bioorg Med Chem Lett, 2019).

Assays:
[1] = Ratio of AUClast in lung to plasma of C57BL/6 mouse at 30 mg/kg, ip; details: other tissue, strain C57BL/6, Lung/Plasma
[2] = Ratio of AUClast in liver to plasma of C57BL/6 mouse at 30 mg/kg, ip; details: other tissue, strain C57BL/6, Liver/Plasma
[3] = Efflux ratio of permeability from basolateral to apical over apical to basolateral side in human Caco2 cells in presence of 3% BSA; details: caco-2

In the case of `COc1cc(-c2ccnc3c2c(C)nn3-c2ccc(C(F)(F)F)cc2)ccc1O`, the Ratio AUC [1] is reported as 704%, the Ratio AUC [2] is reported as 1050% and the Ratio [3] is reported as 1.2.
